Values quoted from earlier work in patent publication US20210002295A1, “SMALL MOLECULE DEGRADERS THAT RECRUIT DCAF15” (Dana-Farber Cancer Institute, Inc., priority 2017, published 2021).

Target: bromodomains of BET proteins
Conditions: stated for small molecule BET inhibitors

With `CCNC(=O)C[C@@H]1N=C(c2ccc(Cl)cc2)c2cc(OC)ccc2-n2c(C)nnc21` [I-BET762] as the molecule, how does the Kd read?
Its Kd is about 10 nM.
